From patent US7700602B2, “Amino-5,5-diphenylimidazolone derivatives for the inhibition of β-secretase” (Wyeth LLC, priority 2004, dated 2010)

Molecular target: T1, human BACE2 (Homo sapiens, UniProt Q9Y5Z0)
T1 sequence (Q9Y5Z0 63-518): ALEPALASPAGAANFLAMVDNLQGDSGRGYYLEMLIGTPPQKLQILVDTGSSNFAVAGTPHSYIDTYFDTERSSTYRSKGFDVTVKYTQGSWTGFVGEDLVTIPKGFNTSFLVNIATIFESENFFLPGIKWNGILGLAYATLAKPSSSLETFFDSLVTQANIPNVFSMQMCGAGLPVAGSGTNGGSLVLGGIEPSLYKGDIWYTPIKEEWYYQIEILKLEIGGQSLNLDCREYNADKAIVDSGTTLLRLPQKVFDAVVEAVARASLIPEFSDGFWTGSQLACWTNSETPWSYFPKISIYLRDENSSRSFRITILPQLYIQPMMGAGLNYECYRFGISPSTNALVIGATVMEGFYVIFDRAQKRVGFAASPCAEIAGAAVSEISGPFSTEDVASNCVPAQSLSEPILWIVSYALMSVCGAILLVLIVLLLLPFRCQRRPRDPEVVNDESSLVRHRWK
Test: Fluorescent Kinetic Assay for Human Recombinant BACE 2 (selectivity BACE1/BACE2);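 further: cleavage rate from the linear slope of fluorescence (excitation 320 nm, emission 420 nm) recorded every 40 s over 30 min at room temperature, sodium acetate buffer with 0.05% CHAPS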
Type: biochemical
Conditions: selectivity BACE1 over BACE2; 1.5 nM human BACE2, 25 μM substrate, pH 4.5

SMILES: Cc1cc(C2(c3cccc(-c4cncnc4)c3)N=C(N)N(C)C2=O)ccc1O[C@H](C)c1ccccc1 (stereo partly drawn) [Example 131, 2-amino-3-methyl-5-{3-methyl-4-[(1R)-1-phenylethoxy]phenyl}-5-(3-pyrimidin-5-ylphenyl)-3,5-dihydro-4H-imidazol-4-one]
- BACE1/BACE2 selectivity: II (II = 10-100-fold selectivity)
